Results: patent publication US20150316556A1, “SSEA4 AND ST3GAL2 AS CHEMOTHERAPEUTIC DRUG RESPONSE BIOMARKERS” (Miltenyi Biotech GmbH, priority 2014, published 2015)

Legend:
[1] = system: purely adherent cell line derived from model HBCx-17; test: SSEA4 expression of cells surviving in vitro treatment with increasing drug concentrations; settings: purely adherent HBCx-17 derived cell line, n=4
[2] = system: primary tumor cell line derived from model HBCx-17 (suspension and adherent cells); test: IC50 values of commonly used chemotherapeutic drugs on suspension versus adherent subpopulations of a primary tumor cell line; type: cell-based, human; settings: HBCx-17 derived primary tumor cell line; n=3; suspension vs adherent subpopulation

Row | Substance | fraction of SSEA4 positive cells in the surviving population [1] | IC50 values of suspension cells (higher SSEA4 expression) compared to adherent cells [2]
1 | 4-Hydroxycyclophosphamide | significantly higher fraction of SSEA4 positive cells | –
2 | Cisplatine | – | higher IC50 values
